Laboratory results: ChEMBL document CHEMBL4339202, “Benzothiophene derivatives as phosphodiesterase 10A (PDE10A) inhibitors: Hit-to-lead studies” (Bioorg Med Chem Lett, 2019)

Protein sequences, listed by entry. Tags and fused reporters are not part of them. Lines headed by an entry give the natural chain unless they say otherwise; changes in a name come on top.
UniProt Q9Y233: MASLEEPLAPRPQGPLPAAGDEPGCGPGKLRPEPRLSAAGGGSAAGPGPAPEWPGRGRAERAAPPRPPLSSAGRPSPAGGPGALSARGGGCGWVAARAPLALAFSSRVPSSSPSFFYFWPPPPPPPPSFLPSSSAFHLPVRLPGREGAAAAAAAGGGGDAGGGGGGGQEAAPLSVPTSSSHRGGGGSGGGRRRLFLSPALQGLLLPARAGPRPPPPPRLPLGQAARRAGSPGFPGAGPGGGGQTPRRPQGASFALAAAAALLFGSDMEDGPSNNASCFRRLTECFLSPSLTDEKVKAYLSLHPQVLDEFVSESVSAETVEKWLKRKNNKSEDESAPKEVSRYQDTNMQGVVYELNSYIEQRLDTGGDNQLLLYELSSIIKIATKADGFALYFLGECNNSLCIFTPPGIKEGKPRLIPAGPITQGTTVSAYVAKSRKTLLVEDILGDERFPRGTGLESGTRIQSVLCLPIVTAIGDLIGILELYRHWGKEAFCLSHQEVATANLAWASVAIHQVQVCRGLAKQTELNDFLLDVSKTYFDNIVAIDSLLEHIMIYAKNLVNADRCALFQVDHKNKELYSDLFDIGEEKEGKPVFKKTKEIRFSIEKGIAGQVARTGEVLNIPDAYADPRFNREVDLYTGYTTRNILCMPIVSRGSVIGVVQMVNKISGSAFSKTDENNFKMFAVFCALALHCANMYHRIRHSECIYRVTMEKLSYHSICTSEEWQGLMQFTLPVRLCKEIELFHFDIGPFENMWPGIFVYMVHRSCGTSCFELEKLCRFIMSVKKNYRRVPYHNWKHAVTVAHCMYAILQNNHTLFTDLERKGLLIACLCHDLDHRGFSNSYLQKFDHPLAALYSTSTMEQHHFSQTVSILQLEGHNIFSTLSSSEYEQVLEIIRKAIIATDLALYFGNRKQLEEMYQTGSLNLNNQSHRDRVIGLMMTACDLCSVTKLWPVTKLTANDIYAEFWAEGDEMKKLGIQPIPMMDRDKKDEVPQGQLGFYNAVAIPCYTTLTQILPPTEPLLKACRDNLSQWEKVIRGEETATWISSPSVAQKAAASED

Target: cAMP and cAMP-inhibited cGMP 3',5'-cyclic phosphodiesterase 10A (Homo sapiens, UniProt Q9Y233)
Assay: Inhibition of human MOLT4 cell-derived PDE10A using [3H]cAMP as substrate measured after 2 hrs in presence of rolipram/milrinone by topcount method

Question: How did the IC50 turn out when `COc1ccc(Cc2nccc3cc(OC)c(OC)cc23)cc1OC` [PAPAVERINE] was run?
Answer: The IC50 was 97 nM.
